Legend:
[1] = molecular target: Stromelysin-1 (Homo sapiens, UniProt P08254)
[2] = organism: Canis familiaris; assay: Half life in dogs.; settings: dog, in vivo
[3] = molecular target: T1, Caspase-1 (Homo sapiens) (UniProt P29466); assay: Inhibition of IL-1 beta converting enzyme
T1 sequence (whole entry): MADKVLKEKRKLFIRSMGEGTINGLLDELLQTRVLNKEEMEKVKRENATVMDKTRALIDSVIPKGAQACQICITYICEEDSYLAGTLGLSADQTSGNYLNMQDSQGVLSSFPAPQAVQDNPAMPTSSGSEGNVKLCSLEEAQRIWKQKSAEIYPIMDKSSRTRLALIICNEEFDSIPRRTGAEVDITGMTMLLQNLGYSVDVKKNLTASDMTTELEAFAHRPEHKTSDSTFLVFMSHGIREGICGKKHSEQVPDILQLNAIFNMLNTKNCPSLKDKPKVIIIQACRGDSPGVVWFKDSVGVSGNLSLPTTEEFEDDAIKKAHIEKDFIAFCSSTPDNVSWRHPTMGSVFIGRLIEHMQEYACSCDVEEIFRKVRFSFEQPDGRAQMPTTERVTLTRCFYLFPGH

By UniProt entry, the sequences of proteins in these tests, tags left out. Where a name states a change or a piece, a line headed by the entry shows the natural chain unless it says otherwise.
UniProt P08254: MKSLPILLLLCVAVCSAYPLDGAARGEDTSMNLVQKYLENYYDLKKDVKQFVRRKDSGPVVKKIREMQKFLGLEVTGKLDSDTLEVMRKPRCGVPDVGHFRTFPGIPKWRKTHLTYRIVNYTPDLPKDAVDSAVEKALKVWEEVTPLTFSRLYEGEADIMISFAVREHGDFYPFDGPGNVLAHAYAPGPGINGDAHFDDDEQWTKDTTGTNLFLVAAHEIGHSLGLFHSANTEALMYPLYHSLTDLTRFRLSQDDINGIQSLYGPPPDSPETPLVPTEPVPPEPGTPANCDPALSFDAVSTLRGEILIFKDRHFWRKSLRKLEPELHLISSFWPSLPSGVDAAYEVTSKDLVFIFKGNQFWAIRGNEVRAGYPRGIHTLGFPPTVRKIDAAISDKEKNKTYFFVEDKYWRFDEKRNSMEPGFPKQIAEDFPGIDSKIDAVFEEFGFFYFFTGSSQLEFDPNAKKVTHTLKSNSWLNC

[4] = molecular target: Collagenase 3 (Homo sapiens, UniProt P45452)
[5] = molecular target: T2, Calpain-1 catalytic subunit (Homo sapiens) (UniProt P07384); assay: Inhibition activity of calpain
T2 sequence (whole entry): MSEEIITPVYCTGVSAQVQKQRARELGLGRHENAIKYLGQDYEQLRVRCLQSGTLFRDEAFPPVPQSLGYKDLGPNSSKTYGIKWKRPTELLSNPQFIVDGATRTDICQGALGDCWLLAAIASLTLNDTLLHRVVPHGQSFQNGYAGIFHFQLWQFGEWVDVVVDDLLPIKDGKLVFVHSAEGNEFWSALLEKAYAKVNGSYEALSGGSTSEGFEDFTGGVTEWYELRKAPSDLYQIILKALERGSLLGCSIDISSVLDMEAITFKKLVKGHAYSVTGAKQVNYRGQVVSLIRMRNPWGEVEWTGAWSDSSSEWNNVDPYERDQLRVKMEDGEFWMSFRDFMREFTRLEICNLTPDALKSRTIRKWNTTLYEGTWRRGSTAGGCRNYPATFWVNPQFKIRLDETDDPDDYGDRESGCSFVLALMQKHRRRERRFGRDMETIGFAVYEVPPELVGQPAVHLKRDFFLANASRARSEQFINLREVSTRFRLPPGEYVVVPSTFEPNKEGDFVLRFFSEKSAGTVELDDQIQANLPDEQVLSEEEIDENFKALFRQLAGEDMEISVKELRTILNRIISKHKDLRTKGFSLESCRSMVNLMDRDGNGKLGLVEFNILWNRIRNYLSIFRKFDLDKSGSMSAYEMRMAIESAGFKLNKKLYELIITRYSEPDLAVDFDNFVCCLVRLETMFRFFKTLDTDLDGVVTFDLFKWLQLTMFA

[6] = molecular target: T3, Neutrophil elastase (Homo sapiens, UniProt P08246)
T3 sequence (P08246 whole entry): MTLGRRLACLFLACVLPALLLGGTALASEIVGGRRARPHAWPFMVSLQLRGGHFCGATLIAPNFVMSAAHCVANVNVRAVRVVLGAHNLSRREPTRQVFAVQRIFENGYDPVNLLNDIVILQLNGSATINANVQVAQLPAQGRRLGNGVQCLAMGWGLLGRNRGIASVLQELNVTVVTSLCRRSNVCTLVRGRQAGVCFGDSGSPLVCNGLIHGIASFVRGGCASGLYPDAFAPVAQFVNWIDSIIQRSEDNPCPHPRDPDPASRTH

COc1ccc(S(=O)(=O)N2CC(C)(C)CN(S(=O)(=O)c3ccc(OC)cc3)C2C(=O)NO)cc1
Ki [1]: 18 nM

CC1=CCN(C(=O)[C@H](Cc2ccc(C(=N)N)cc2)NS(=O)(=O)c2ccc3c(c2)CN(C)CC3)[C@@H](C(=O)O)C1
half-life [2]: 48 min

O=C(O)C[C@H](NC(=O)Cn1c(-c2cccs2)ncc(NC(=O)OCc2ccccc2)c1=O)C(=O)COC(=O)c1c(Cl)cccc1Cl
K obs / 1 [3]: 272000 M⁻¹ s⁻¹

CN1C(=O)N(C[C@H](C(=O)NO)[C@@H](CC2CCCC2)C(=O)N2CCCCC2)C(=O)C1(C)C
Ki [4]: 3 nM

CC(C)C[C@H](NC(=O)N1CCc2ccccc2C1)C(=O)N[C@@H](Cc1ccccc1)C(=O)CF
K obs / 1 [5]: 276000 M⁻¹ s⁻¹

CC(C)(C)C(=O)Oc1ccc(S(=O)(=O)Nc2ccccc2C(=O)NCC(=O)O)cc1
Ki [6]: 200 nM
